Assay results published in PubChem BioAssay AID602329 (Broad Institute, 2012).
The entries are a selection whose mix differs from that of the whole data set. Some structures show a salt or complex split into parts, the way the source records it. Active and inactive are the calls of the source.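 The calls were made as follows: active = mean normalized replicate activity at least 40 and at least half of replicates scoring 40 or more; inconclusive = only one of the two criteria met; inactive = mean below 40 and under half of replicates reaching 40.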

The chains behind the UniProt entries cited, without tags or fusion partners.
UniProt Q92698, whole entry: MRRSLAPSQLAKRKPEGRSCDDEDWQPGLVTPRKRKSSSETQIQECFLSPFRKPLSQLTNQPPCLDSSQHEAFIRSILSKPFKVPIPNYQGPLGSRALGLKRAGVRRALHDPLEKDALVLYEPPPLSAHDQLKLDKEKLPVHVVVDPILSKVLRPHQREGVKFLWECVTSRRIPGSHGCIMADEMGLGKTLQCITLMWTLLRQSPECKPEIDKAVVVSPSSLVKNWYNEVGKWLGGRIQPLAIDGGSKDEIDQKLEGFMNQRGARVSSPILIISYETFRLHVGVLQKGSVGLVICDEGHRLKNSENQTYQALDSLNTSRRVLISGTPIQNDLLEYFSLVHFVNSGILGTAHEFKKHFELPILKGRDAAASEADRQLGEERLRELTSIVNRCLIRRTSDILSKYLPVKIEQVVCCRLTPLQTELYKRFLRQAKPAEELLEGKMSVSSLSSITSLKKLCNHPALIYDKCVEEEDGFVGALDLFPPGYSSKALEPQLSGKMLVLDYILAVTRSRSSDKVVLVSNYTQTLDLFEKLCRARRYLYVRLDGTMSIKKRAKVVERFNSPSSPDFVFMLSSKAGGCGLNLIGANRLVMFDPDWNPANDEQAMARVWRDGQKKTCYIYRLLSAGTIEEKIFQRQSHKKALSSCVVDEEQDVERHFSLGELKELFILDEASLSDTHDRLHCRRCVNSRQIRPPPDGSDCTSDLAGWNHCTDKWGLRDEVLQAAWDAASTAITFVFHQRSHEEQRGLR

Each compound was assayed against DNA repair and recombination protein RAD54-like (Homo sapiens) (UniProt Q92698) (assay: inhibitors of human RAD54 branch migration, primary screen, biochemical, fluorescence, single point (AID 602329;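 also: 0% = median of neutral control wells and 100% = median of positive control wells; inhibitors cause a drop in the FAM fluorescence signal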)). Settings: RAD54 Holliday junction branch migration, FAM/BHQ fluorescence; at 10.4 µM; hits give high values.

Question: Which inhibition does the source give for `CCOC(=O)c1ccc(NP(C)(=O)Oc2ccc(Cl)cc2)cc1` (stereo not given) here?
Answer: inactive: -23%

Question: `CP(=O)(OC12CC3CC(CC(C3)C1)C2)OC12CC3CC(CC(C3)C1)C2` was tested. Which inhibition did it give?
Answer: inactive: 1.14%

Question: For `CC(C)(C)c1ccc(OP(C)(=O)O)cc1`, which inhibition is on record?
Answer: inactive: -16.6%

Question: How did the inhibition turn out when `COc1ccccc1OP(C)(=O)Nc1ccccc1Br` (stereo not given) was run?
Answer: inactive: 6.38%

Question: With `CP(=O)(Nc1ccc(Cl)cc1)Oc1ccc(F)cc1` (stereo not given) as the compound, how does the inhibition read?
Answer: inactive: -1.73%

Question: `CCN(CC)CC(O)COC(=O)C(O)(c1ccccc1)C1CCCCC1` (stereo not given) was tested. Which inhibition did it give?
Answer: inactive: -7%

Question: With `COc1ccc(OP(C)(=O)Nc2ccc(Br)cc2)cc1` (stereo not given) as the compound, how does the inhibition read?
Answer: inactive: -10%

Question: For `COc1ccccc1OP(C)(=O)Nc1c(C)n(C)n(-c2ccccc2)c1=O` (stereo not given), which inhibition is on record?
Answer: inactive: 5.5%

Question: How did the inhibition turn out when `O=C(OCCCN1CCCC1)C(O)(c1ccccc1)C1CCCCC1` (stereo not given) was run?
Answer: inactive: 8.7%

Question: How did the inhibition turn out when `CP(=O)(Oc1ccccc1)N1CCOC1=O` (stereo not given) was run?
Answer: inactive: 1.18%

Question: With `CCc1ccc(OP(C)(=O)Nc2cccnc2)cc1` (stereo not given) as the compound, how does the inhibition read?
Answer: inactive: 6.95%

Question: Which inhibition does the source give for `O=[N+]([O-])c1cc([N+](=O)[O-])c(Nc2ccccn2)c([N+](=O)[O-])c1` here?
Answer: inactive: 2.78%

Question: For `CP(=O)(Nc1ccccn1)Oc1ccccc1` (stereo not given), which inhibition is on record?
Answer: inactive: -5.58%

Question: `COc1ccccc1OP(C)(=O)Nc1ccc(C)cc1C` (stereo not given) was tested. Which inhibition did it give?
Answer: inactive: 8.13%

Question: How did the inhibition turn out when `CCc1ccc(OP(C)(=O)O)cc1` was run?
Answer: inactive: -6.63%

Question: How did the inhibition turn out when `COc1ccc(OP(C)(=O)Nc2ccccn2)cc1` (stereo not given) was run?
Answer: inactive: 3.01%

Question: How did the inhibition turn out when `CN(C)CCOC(=O)C(O)(c1ccccc1)C1CCCC1` (stereo not given) was run?
Answer: inactive: -6.31%

Question: How did the inhibition turn out when `CP(=O)(Nc1ccc(Cl)cc1Cl)Oc1ccccc1` (stereo not given) was run?
Answer: inactive: 4.65%

Question: `O=C1C(O)=C([N+](=O)[O-])C(=O)C(O)=C1[N+](=O)[O-]` was tested. Which inhibition did it give?
Answer: inactive: 4.96%

Question: Which inhibition does the source give for `COc1ccccc1OP(C)(=O)Nc1ccc(C)c(C)c1` (stereo not given) here?
Answer: inactive: 0.0295%

Question: For `Cc1c([N+](=O)[O-])cc([N+](=O)[O-])c(Br)c1[N+](=O)[O-]`, which inhibition is on record?
Answer: inactive: 8.01%

Question: `CCN(CC)CCCOC(=O)C(O)(c1ccccc1)C1CCCCC1` (stereo not given) was tested. Which inhibition did it give?
Answer: inactive: 0.157%

Question: Which inhibition does the source give for `CP(=O)(Nc1ccccc1)Oc1ccc(F)cc1` (stereo not given) here?
Answer: inactive: -1.45%

Question: How did the inhibition turn out when `CCCCCOc1ccc(NP(C)(=O)Oc2ccc(Cl)cc2Cl)cc1` (stereo not given) was run?
Answer: inactive: -2.67%

Question: With `O=[N+]([O-])c1cc([N+](=O)[O-])c(OC2CCCCC2O)c([N+](=O)[O-])c1` (stereo not given) as the compound, how does the inhibition read?
Answer: inactive: -23.5%

Question: For `CCOC(=O)c1ccc(NP(C)(=O)Oc2ccc(F)cc2)cc1` (stereo not given), which inhibition is on record?
Answer: inactive: 0.0715%

Question: With `O=C(OCCN1CCN(CCOCc2ccccc2)CC1)C(O)(c1ccccc1)c1ccccc1` as the compound, how does the inhibition read?
Answer: inactive: 1.93%

Question: With `COc1ccc2c(c1O)-c1c(O)c(OC)cc3c1[C@H](C2)[N+](C)(C)CC3.O=[N+]([O-])c1cc([N+](=O)[O-])c([O-])c([N+](=O)[O-])c1[O-]` as the compound, how does the inhibition read?
Answer: inactive: -8.68%

Question: For `O=[N+]([O-])c1cc([N+](=O)[O-])c(Nc2ccc(Cl)cc2)c([N+](=O)[O-])c1`, which inhibition is on record?
Answer: inactive: -3.25%

Question: `CP(=O)(Nc1ccccc1F)Oc1ccccc1` (stereo not given) was tested. Which inhibition did it give?
Answer: inactive: -13.4%

Question: `CP(=O)(Nc1ccc2c(c1)OCCO2)Oc1ccccc1` (stereo not given) was tested. Which inhibition did it give?
Answer: inactive: -27%

Question: How did the inhibition turn out when `Cc1ccccc1NP(C)(=O)Nc1ccccc1C` was run?
Answer: inactive: -3.01%

Question: With `CCOP(C)(=S)SCC(=O)NC(C)(CC)C(=O)O` (stereo not given) as the compound, how does the inhibition read?
Answer: inactive: 5.9%

Question: How did the inhibition turn out when `O=[N+]([O-])c1ccc(OP2(=O)COCCO2)cc1` (stereo not given) was run?
Answer: inactive: 1.59%

Question: For `Cc1cc(-c2cccc3ccccc23)c(C)cn1.O=[N+]([O-])c1cc([N+](=O)[O-])c(O)c([N+](=O)[O-])c1`, which inhibition is on record?
Answer: inactive: -5.87%

Question: With `Cc1c(C(c2ccc3c(c2)OCO3)c2c(C)n(C)n(-c3ccccc3)c2=O)c(=O)n(-c2ccccc2)n1C.O=[N+]([O-])c1cc([N+](=O)[O-])c(O)c([N+](=O)[O-])c1` as the compound, how does the inhibition read?
Answer: inactive: -19.7%

Question: How did the inhibition turn out when `COc1ccc(OP(C)(=O)Nc2cccc(Br)c2)cc1` (stereo not given) was run?
Answer: inactive: -1.66%

Question: For `CN(C)CCOC(=O)C(O)(c1ccccc1)C1CCCCC1` (stereo not given), which inhibition is on record?
Answer: inactive: -13.7%

Question: `COc1ccc(NP(C)(=O)Oc2ccccc2OC)cc1` (stereo not given) was tested. Which inhibition did it give?
Answer: inactive: 2.79%

Question: How did the inhibition turn out when `COc1ccccc1OP(C)(=O)Nc1c(C)cccc1C` (stereo not given) was run?
Answer: inactive: 5.04%

Question: For `CCCOc1ccc(NP(C)(=O)Oc2ccc(Cl)cc2)cc1` (stereo not given), which inhibition is on record?
Answer: inactive: -5.46%

Question: Which inhibition does the source give for `O=[N+]([O-])c1cc([N+](=O)[O-])c(Nc2nnnn2CCO)c([N+](=O)[O-])c1` here?
Answer: inactive: 6.64%

Question: For `CC1=C2N=C(C=C3N=C(C(C)=C4[N-][C@@](C)([C@@H]5N=C1[C@](C)(CCC(=O)NC[C@@H](C)OP(=O)([O-])O[C@H]1[C@@H](O)[C@@H](n6cnc7cc(C)c(C)cc76)O[C@@H]1CO)[C@H]5CC(N)=O)[C@@](C)(CC(N)=O)[C@@H]4CCC(N)=O)[C@@](C)(CC(N)=O)[C@@H]3CCC(N)=O)C(C)(C)[C@@H]2CCC(N)=O.[C-]#N.[Co+3]`, which inhibition is on record?
Answer: inactive: 2.51%

Question: With `CCOC(=O)C(CC)C1=NC(C)(C)Cc2ccccc21.O=[N+]([O-])c1cc([N+](=O)[O-])c(O)c([N+](=O)[O-])c1` (stereo not given) as the compound, how does the inhibition read?
Answer: inactive: -15.2%

Question: `O=[N+]([O-])c1cc([N+](=O)[O-])c(-c2cnn(-c3ccccc3)c2)c([N+](=O)[O-])c1` was tested. Which inhibition did it give?
Answer: inactive: 6.36%

Question: How did the inhibition turn out when `Cc1nc2ccc3ccccc3c2s1.O=[N+]([O-])c1cc([N+](=O)[O-])c(O)c([N+](=O)[O-])c1` was run?
Answer: inactive: -0.774%

Question: `O=[N+]([O-])c1cc([N+](=O)[O-])c(-n2nnc3ccccc32)c([N+](=O)[O-])c1` was tested. Which inhibition did it give?
Answer: inactive: -6.02%

Question: With `CN(Cc1cccnc1)C(=O)COc1ccc(Cl)c(Cl)c1.O=[N+]([O-])c1cc([N+](=O)[O-])c(O)c([N+](=O)[O-])c1` as the compound, how does the inhibition read?
Answer: inactive: -1.56%

Question: How did the inhibition turn out when `Cc1ccc(C)c(NP(C)(=O)Oc2ccccc2)c1` (stereo not given) was run?
Answer: inactive: 2.34%

Question: For `Cc1cc(C)cc(OP(C)(=O)Nc2ccccn2)c1` (stereo not given), which inhibition is on record?
Answer: inactive: -3.21%

Question: How did the inhibition turn out when `COc1ccccc1OP(C)(=O)Nc1cccc(Br)c1` (stereo not given) was run?
Answer: inactive: -7.05%

Question: For `Cc1cc(C)cc(OP(C)(=O)Nc2ccc(C)cc2C)c1` (stereo not given), which inhibition is on record?
Answer: inactive: -3.1%

Question: With `CC1=NCCc2c1[nH]c1ccccc21.O=[N+]([O-])c1cc([N+](=O)[O-])c(O)c([N+](=O)[O-])c1` as the compound, how does the inhibition read?
Answer: inactive: 3.14%

Question: `O=C(O)c1cccc(Nc2c([N+](=O)[O-])cc([N+](=O)[O-])cc2[N+](=O)[O-])c1` was tested. Which inhibition did it give?
Answer: inactive: 7.55%

Question: With `COc1ccccc1OP(C)(=O)Nc1ccc(C)cc1` (stereo not given) as the compound, how does the inhibition read?
Answer: inactive: 5.27%

Question: With `Cc1ccc(NP(C)(=O)Oc2ccccc2)c(C)c1` (stereo not given) as the compound, how does the inhibition read?
Answer: inactive: -4.06%

Question: How did the inhibition turn out when `CCOC(=O)c1ccc(NP(C)(=O)Oc2ccccc2)cc1` (stereo not given) was run?
Answer: inactive: -6.75%

Question: With `Cc1cc(C)cc(OP(C)(N)=O)c1` (stereo not given) as the compound, how does the inhibition read?
Answer: inactive: -7.65%

Question: How did the inhibition turn out when `COc1ccc(OP(C)(=O)Nc2cccc(F)c2)cc1` (stereo not given) was run?
Answer: inactive: -9.82%

Question: For `O=[N+]([O-])c1cc([N+](=O)[O-])c(Nc2cccnc2)c([N+](=O)[O-])c1`, which inhibition is on record?
Answer: inactive: 4.97%

Question: `O=[N+]([O-])c1cc([N+](=O)[O-])c(O)c([N+](=O)[O-])c1.c1ccc(Oc2ccncc2)cc1` was tested. Which inhibition did it give?
Answer: inactive: 7.4%

Question: Which inhibition does the source give for `CCOC(=O)c1ccc(NP(C)(=O)Oc2ccc(OC)cc2)cc1` (stereo not given) here?
Answer: inactive: 1.67%

Question: For `CCOP(C)(=S)SCC(=O)NC(C)C(=O)O` (stereo not given), which inhibition is on record?
Answer: inactive: -11.2%

Question: With `CP(=O)(Nc1ccccn1)Oc1ccc(Cl)cc1` (stereo not given) as the compound, how does the inhibition read?
Answer: inactive: -3.88%

Question: How did the inhibition turn out when `CP(=O)(Nc1ccc(SC(F)(F)F)cc1)Oc1ccc(Cl)cc1` (stereo not given) was run?
Answer: inactive: -5.54%

Question: Which inhibition does the source give for `Cc1ccc(Nc2c([N+](=O)[O-])cc([N+](=O)[O-])cc2[N+](=O)[O-])cc1` here?
Answer: inactive: -1.91%

Question: How did the inhibition turn out when `Cc1cccc(C)c1OP(C)(=O)Nc1ccc(SC(F)(F)F)cc1` (stereo not given) was run?
Answer: inactive: 0.163%

Question: How did the inhibition turn out when `CP(=O)(Oc1ccccc1)OC(c1ccccc1)C(F)(F)F` (stereo not given) was run?
Answer: inactive: -3.56%

Question: With `CCc1ccc(OP(C)(=O)N2CCN(c3ccc([N+](=O)[O-])cc3)CC2)cc1` (stereo not given) as the compound, how does the inhibition read?
Answer: inactive: 6.82%

Question: `CP(=S)(Nn1cnnc1)Oc1ccccc1` (stereo not given) was tested. Which inhibition did it give?
Answer: inactive: 0.232%
